Legend:
11β-HSD2 = 11β-HSD2 oxidase activity in human hepatic microsomes (HTRF Cortisol Kit); type: biochemical; settings: remaining activity at 100 nM compound
Procedure: Determination of 11β-HSD2 Oxidase Activity
The concentration of cortisone produced in the reaction, with and without the compounds, was determined using the Cortisol Kit (Cisbio) product in order to evaluate the 11β-HSD2 oxidase activity.
As in the previous assays, the compounds are reconstituted in DMSO to 10 mM stock, in order to subsequently make serial dilutions to determine the efficacy curve.
To determine the IC50 of the compounds, a model of donor human hepatic microsomes (BioReclamationIVT Inc.) was used, which was prepared in Tris Buffer 20 mM EDTA 5 mM pH 6.0 (Tris buffer).
To perform the assay, the HTRF plate was prepared containing Tris buffer, 100 nM cortisol and 200 μM NAD^+. […]
After the incubation time, the reagents of the Cortisol kit, Cortisol d2 and Cortisol cryptate, in a sample ratio, Cortisol d2 and cortisol cryptate 2:1:1 are added. […] The plate was incubated for 1 hour at room temperature to later read at 665 and 620 nm.
Once the enzyme concentration to be used has been determined, the Cortisol Kit protocol is continued to determine the efficacy curve for the compounds. […]
After incubating the plate for 2 hours, the reagents of the cortisol kit, cortisol d2 and cortisol cryptate, are added to the corresponding wells as indicated above. They are then incubated at room temperature for 1 hour to finally read the 665 and 620 nm fluorescence.

By UniProt entry, the sequences of proteins in these tests, tags left out. Where a name states a change or a piece, a line headed by the entry shows the natural chain unless it says otherwise.
UniProt P28845: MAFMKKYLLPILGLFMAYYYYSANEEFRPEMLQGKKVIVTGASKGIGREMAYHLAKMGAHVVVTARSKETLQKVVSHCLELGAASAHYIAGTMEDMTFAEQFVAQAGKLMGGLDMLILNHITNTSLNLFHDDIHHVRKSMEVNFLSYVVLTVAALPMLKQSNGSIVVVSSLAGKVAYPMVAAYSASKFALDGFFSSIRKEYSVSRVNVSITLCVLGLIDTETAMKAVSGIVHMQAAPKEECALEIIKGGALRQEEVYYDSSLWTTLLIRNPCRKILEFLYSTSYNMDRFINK

[1] = target: recombinant 11β-HSD1 enzyme (Homo sapiens (Human), UniProt P28845); test: 11β-HSD1 oxidase activity (HTRF Cortisol Kit); type: biochemical; settings: remaining activity at 100 uM compound
Procedure: Determination of 11β-HSD1 Oxidase Activity
The determination of the 11β-HSD1 oxidase activity is carried out by measuring the concentration of cortisone produced in the reaction with and without the compounds. The Cortisol Kit (Cisbio) product was used for that purpose.
For the analysis, the compounds are reconstituted in DMSO in a stock of 10 mM concentration, from which serial dilutions were prepared for the efficiency curve.
The recombinant 11β-HSD1 enzyme dilutions were prepared in 20 mM Tris Buffer 5 mM EDTA pH 6.0 (Tris buffer).
Initially, the enzyme concentration to be used was determined. For this purpose, a plate for HRTF was prepared with Tris buffer with 100 nM cortisol and 200 μM NADP+, including in the wells of the plate for HTRF together with the enzyme in a 4:1 ratio, respectively, and incubated for 2 hours at 37° C. After this time, the reagents of the Cortisol kit, Cortisol d2 and Cortisol cryptate in sample ratio, Cortisol d2 and cortisol cryptate 2:1:1 were added, incubating this new reaction for 1 hour at room temperature. Subsequently, the fluorescence was determined at 665 and 620 nm.
Once the enzyme concentration to be used has been determined, the Cortisol Kit protocol is continued to determine the efficacy curve of the compounds. […] They were then incubated at room temperature for 1 hour to finally read the fluorescence at 665 and 620 nm.

Compound	11b-HSD2 oxidase (activ rem %) Microcosms 100 nM (11β-HSD2)	11b-HSD1 oxidase (activ rem %) 100 uM [1]
1-(3-pyridyl)-2-(3-adamantyl-1,2,4-oxadiazol-5-yl)ethane [BD-44]	114.1%	–
c1ccc(CCc2nc(C34CC5CC(CC(C5)C3)C4)no2)nc1 [BD-45, 1-(2-pyridyl)-2-(3-adamantyl-1,2,4-oxadiazol-5-yl)ethane]	–	114.0%

Reference: US12304894B2, “Derivatives of adamantyl oxadiazoles and pharmaceutically acceptable solvates, hydrates and salts thereof, pharmaceutical composition comprising same, synthesis method, suitable for use as effective and selective inhibitors of the reductase activity of the enzyme 11-beta dehydrogenase type 1 …” (PONTIFICIA UNIVERSIDAD CATOLICA DE CHILE, priority 2019, dated 2025)
